Assay results: patent US6387406B1, “Copolymer compositions for oral delivery” (Supratek Pharma Inc., priority 1992, dated 2002)

Test system: C6 glioma cells
Details: i.p. 10, 15, 20 and 25 days after inoculation

COc1cccc2c1C(=O)c1c(O)c3c(c(O)c1C2=O)C[C@@](O)(C(=O)CO)C[C@@H]3O[C@H]1C[C@H](N)[C@H](O)[C@H](C)O1 [Free doxorubicin, doxorubicin]
Median survival: 10.5 days
